The record followed here is ChEMBL document CHEMBL1132227, “Low-molecular-weight peptidic and cyclic antagonists of the receptor for the complement factor C5a” (J Med Chem, 1999).

Assay [1] deals with T1, C5a anaphylatoxin chemotactic receptor 1 (Homo sapiens, UniProt P21730).
T1 sequence (P21730 whole entry): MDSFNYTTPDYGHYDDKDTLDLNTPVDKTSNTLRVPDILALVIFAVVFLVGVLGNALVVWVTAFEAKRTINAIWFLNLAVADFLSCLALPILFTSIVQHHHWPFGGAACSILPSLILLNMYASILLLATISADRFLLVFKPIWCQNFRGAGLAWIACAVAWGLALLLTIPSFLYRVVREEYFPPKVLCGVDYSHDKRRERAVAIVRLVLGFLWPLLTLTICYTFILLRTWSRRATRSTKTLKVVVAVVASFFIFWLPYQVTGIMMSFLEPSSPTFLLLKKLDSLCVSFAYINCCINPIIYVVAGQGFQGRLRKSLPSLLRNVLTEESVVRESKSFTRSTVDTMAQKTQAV
The assay can be described thus: (§1) Inhibition of binding of [125I]C5a to human polymorphonuclear leukocyte C5a receptor. Summed up: (§2)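 Competition binding on fresh human PMNs (0.2 × 10⁶) with [¹²⁵I]C5a (~50 pM). Buffer: 50 mM HEPES, 1 mM CaCl₂, 5 mM MgCl₂, 0.5% BSA, 0.1% bacitracin, 100 μM PMSF. Incubated 60 min at 4 °C, then filtered, washed and γ-counted. Nonspecific binding defined with 1 mM peptide or 100 nM C5a.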

Assay [2] concerns the target T1, C5a anaphylatoxin chemotactic receptor 1. Described as §1. Summed up:
as §2
This is another data set of the same source.

Molecules are shown by their SMILES.

Regarding `CN[C@@H](Cc1ccccc1)C(=O)N[C@@H](CCCCN)C(=O)N1CCCC1C(=O)N[C@H](CC1CCCCC1)C(=O)N[C@@H](Cc1c[nH]c2ccccc12)C(=O)N[C@H](CCCN=C(N)N)C(=O)O` (single isomer, unassigned), the IC50 in assay [1] and in assay [2] was 2000 nM each time.
